According to PubChem BioAssay (NCI):
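Protocol summary: plate cells (96-well), add compound at 5 concentrations, incubate 48 h, interpolate endpoints linearly. GI50 is the concentration that inhibits growth by half. The concentration for full growth arrest is given as TGI.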

Key:
Experiment in all cases: inhibition of tumour cell growth, NCI panel, 48 h
[1] = tested on: UACC-62 melanoma
[2] = tested on: SR leukemia
[3] = tested on: MCF7 breast
[4] = tested on: T-47D breast
[5] = tested on: SN12C renal
[6] = tested on: A549 NSCLC
[7] = tested on: CAKI-1 renal
[8] = tested on: SK-OV-3 ovarian
[9] = tested on: MDA-MB-231 breast
[10] = tested on: SK-MEL-2 melanoma
[11] = tested on: CCRF-CEM leukemia
[12] = tested on: MALME-3M melanoma
[13] = tested on: OVCAR-3 ovarian
[14] = tested on: HCT-15 colon
[15] = tested on: SK-MEL-5 melanoma
[16] = tested on: 786-0 renal
[17] = tested on: SF-539 CNS
[18] = tested on: BT-549 breast
[19] = tested on: RXF 393 renal
[20] = tested on: COLO 205 colon
[21] = tested on: HOP-62 NSCLC
[22] = tested on: K-562 leukemia
[23] = tested on: HL-60(TB) leukemia
[24] = tested on: IGROV1 ovarian
[25] = tested on: TK-10 renal
[26] = tested on: SF-295 CNS
[27] = tested on: RPMI-8226 leukemia
[28] = tested on: SNB-75 CNS
[29] = tested on: A498 renal
[30] = tested on: OVCAR-8 ovarian
[31] = tested on: HCT-116 colon
[32] = tested on: SW-620 colon
[33] = tested on: UACC-257 melanoma
[34] = tested on: NCI-H23 lung
[35] = tested on: NCI/ADR-RES ovarian
[36] = tested on: OVCAR-4 ovarian
[37] = tested on: MOLT-4 leukemia
[38] = tested on: HT29 colon
[39] = tested on: PC-3 prostate
[40] = tested on: KM12 colon
[41] = tested on: U251 CNS
[42] = tested on: DU-145 prostate
[43] = tested on: HOP-92 NSCLC
[44] = tested on: SNB-19 CNS
[45] = tested on: HS 578T breast
[46] = tested on: NCI-H226 lung
[47] = tested on: SK-MEL-28 melanoma
[48] = tested on: NCI-H322M lung
[49] = tested on: EKVX NSCLC
[50] = tested on: LOX IMVI melanoma
[51] = tested on: ACHN renal
[52] = tested on: UO-31 renal
[53] = tested on: SF-268 CNS
[54] = tested on: NCI-H522 lung
[55] = tested on: HCC-2998 colon
[56] = tested on: OVCAR-5 ovarian
[57] = tested on: NCI-H460 lung
[58] = tested on: MDA-MB-435

Molecule `Cc1ccc(N(CCCl)CCCl)cc1` has a GI50 [1] of 1.52 µM, a TGI [1] of 19.3 µM and a GI50 [2] of 0.454 µM. It also gave a TGI [2] of 36.7 µM, a GI50 [3] of 0.977 µM and a TGI [3] of 49.2 µM. The GI50 [4] was 2.94 µM, the TGI [4] was 31 µM and the GI50 [5] was 1.68 µM. For the same molecule, the TGI [5] was > 100 µM, the GI50 [6] was 6.87 µM and the TGI [6] was > 100 µM. For the same molecule, the GI50 [7] was 0.491 µM, the TGI [7] was > 100 µM and the GI50 [8] was 4.45 µM. The TGI [8] was 32 µM, the GI50 [9] was 27.6 µM and the TGI [9] was > 100 µM. It also gave a GI50 [10] of 11.7 µM, a TGI [10] of 29.3 µM and a GI50 [11] of 1.39 µM. For the same molecule, the TGI [11] was > 100 µM, the GI50 [12] was 13.5 µM and the TGI [12] was 43.9 µM. The GI50 [13] was 13.1 µM, the TGI [13] was 32.4 µM and the GI50 [14] was 13.6 µM. The TGI [14] was > 100 µM, the GI50 [15] was 12.3 µM and the TGI [15] was 26.6 µM. For the same molecule, the GI50 [16] was 2.67 µM, the TGI [16] was 19.7 µM and the GI50 [17] was 2.28 µM. For the same molecule, the TGI [17] was 40.6 µM, the GI50 [18] was 16.8 µM and the TGI [18] was 38 µM. For the same molecule, the GI50 [19] was 3.96 µM, the TGI [19] was 16.7 µM and the GI50 [20] was 14.2 µM. It also gave a TGI [20] of 72.5 µM, a GI50 [21] of 3.85 µM and a TGI [21] of 31.7 µM. For the same molecule, the GI50 [22] was 4.3 µM, the TGI [22] was > 100 µM and the GI50 [23] was 0.868 µM. The TGI [23] was 21.7 µM, the GI50 [24] was 11.3 µM and the TGI [24] was 73.2 µM. The GI50 [25] was 2.92 µM, the TGI [25] was 38.6 µM and the GI50 [26] was 2.91 µM. For the same molecule, the TGI [26] was > 100 µM, the GI50 [27] was 16.7 µM and the TGI [27] was > 100 µM. It also gave a GI50 [28] of 3.14 µM, a TGI [28] of 18.7 µM and a GI50 [29] of 13.9 µM. It also gave a TGI [29] of 48.1 µM, a GI50 [30] of 4.55 µM and a TGI [30] of 63.6 µM. For the same molecule, the GI50 [31] was 8.56 µM, the TGI [31] was 30.8 µM and the GI50 [32] was 6.4 µM. The TGI [32] was > 100 µM, the GI50 [33] was 10.8 µM and the TGI [33] was 45.9 µM. The GI50 [34] was 3.04 µM, the TGI [34] was 41.4 µM and the GI50 [35] was 4.51 µM. The TGI [35] was > 100 µM, the GI50 [36] was 14.3 µM and the TGI [36] was 38 µM. The GI50 [37] was 1.15 µM, the TGI [37] was 29 µM and the GI50 [38] was 10.5 µM. For the same molecule, the TGI [38] was 62.7 µM, the GI50 [39] was 26.1 µM and the TGI [39] was > 100 µM. The GI50 [40] was 23.9 µM, the TGI [40] was > 100 µM and the GI50 [41] was 5.01 µM. It also gave a TGI [41] of 68.2 µM, a GI50 [42] of 2.24 µM and a TGI [42] of 19.9 µM. The GI50 [43] was 4.44 µM, the TGI [43] was 43.7 µM and the GI50 [44] was 3.9 µM. For the same molecule, the TGI [44] was > 100 µM, the GI50 [45] was 19.4 µM and the TGI [45] was > 100 µM. For the same molecule, the GI50 [46] was 11.9 µM, the TGI [46] was 35.3 µM and the GI50 [47] was 16.1 µM. The TGI [47] was 61.3 µM, the GI50 [48] was 28.9 µM and the TGI [48] was > 100 µM. The GI50 [49] was 28.9 µM, the TGI [49] was > 100 µM and the GI50 [50] was 8.59 µM. For the same molecule, the TGI [50] was 35.2 µM, the GI50 [51] was 1.05 µM and the TGI [51] was > 100 µM. For the same molecule, the GI50 [52] was 13 µM, the TGI [52] was > 100 µM and the GI50 [53] was 1.32 µM. For the same molecule, the TGI [53] was 25.6 µM, the GI50 [54] was 3.59 µM and the TGI [54] was 17.4 µM. It also gave a GI50 [55] of 14.8 µM, a TGI [55] of 40.6 µM and a GI50 [56] of 23.1 µM. For the same molecule, the TGI [56] was > 100 µM, the GI50 [57] was 0.69 µM and the TGI [57] was > 100 µM. For the same molecule, the GI50 [58] was 12 µM and the TGI [58] was 29.4 µM.
